Measurements as given in ChEMBL document CHEMBL1156628, “Further studies on lead compounds containing the opioid pharmacophore Dmt-Tic” (J Med Chem, 2008).

Amino acid sequences for entries named in this document (tags omitted).
UniProt P32300, whole entry: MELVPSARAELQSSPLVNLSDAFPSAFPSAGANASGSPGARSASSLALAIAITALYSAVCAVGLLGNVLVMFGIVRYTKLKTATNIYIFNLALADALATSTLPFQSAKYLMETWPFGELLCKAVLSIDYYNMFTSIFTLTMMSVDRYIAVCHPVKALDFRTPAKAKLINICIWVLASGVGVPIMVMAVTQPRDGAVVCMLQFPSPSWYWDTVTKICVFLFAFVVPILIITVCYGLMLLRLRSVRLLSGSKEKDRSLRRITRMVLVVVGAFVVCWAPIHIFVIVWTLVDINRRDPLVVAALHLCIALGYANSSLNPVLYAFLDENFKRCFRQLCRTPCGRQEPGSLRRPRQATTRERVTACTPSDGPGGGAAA

Target: Delta-type opioid receptor (Mus musculus, UniProt P32300)
Assay: Agonist activity at mu opioid receptor in Hartley guinea pig ileum myenteric plexus longitudinal muscle assessed as inhibition of electrically-stimulated muscle contraction
Type: functional, tissue-based

SMILES: Cc1cc(O)cc(C)c1C[C@H](N)C(=O)N1Cc2ccccc2C[C@H]1C(=O)NCc1nc2ccccc2[nH]1
- IC50: 130 pM
